Results on one substance are retold here after US20180022780A1, “STABILIZATION ADRENOMEDULLIN DERIVATIVES AND USE THEREOF” (priority 2014, published 2018).

The target in the test is CLR fused to EYFP with RAMP2 fused to ECFP. Put plainly: cell-based or functional assay.

As to “Wild type adrenomedullin (from UniProt P35318 95-146) (ligand)”, the EC50 [nM], cAMP assay (CRE-luciferase luminescence, HEK293 cells) turned out to be 1.7 nM.
